Measurements reported in PubChem BioAssay (EPA / NIEHS).
“And” between values parts separate entries of the source, which are not always exact repeats. Equal values may be shown once. Only a part is listed here, and it is no random draw. Records with an inconclusive call do not appear. A structure can be active in one record and inactive in another. The source made the active and inactive calls. Rule for the calls, unless noted: active = hit-call score of the fitted dose curve at least 0.9, where 1 is the maximum; inconclusive = response in the unintended direction; inactive = score below 0.9.

The chains behind the UniProt entries cited, without tags or fusion partners. Where a name states a change or a piece, a line headed by the entry shows the natural chain unless it says otherwise.
UniProt P37231: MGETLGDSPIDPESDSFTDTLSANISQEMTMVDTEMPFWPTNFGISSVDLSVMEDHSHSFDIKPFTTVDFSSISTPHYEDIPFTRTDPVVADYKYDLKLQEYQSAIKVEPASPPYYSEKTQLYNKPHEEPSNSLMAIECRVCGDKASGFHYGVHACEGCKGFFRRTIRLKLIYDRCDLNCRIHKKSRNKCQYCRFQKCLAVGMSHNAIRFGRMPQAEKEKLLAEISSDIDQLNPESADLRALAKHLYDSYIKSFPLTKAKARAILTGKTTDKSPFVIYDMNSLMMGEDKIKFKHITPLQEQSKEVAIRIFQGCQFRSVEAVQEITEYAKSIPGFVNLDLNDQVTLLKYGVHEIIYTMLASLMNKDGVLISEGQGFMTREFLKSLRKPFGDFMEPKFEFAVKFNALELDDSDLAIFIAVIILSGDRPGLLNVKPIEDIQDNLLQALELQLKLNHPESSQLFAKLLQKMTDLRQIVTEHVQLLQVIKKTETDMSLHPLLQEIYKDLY
UniProt O75469: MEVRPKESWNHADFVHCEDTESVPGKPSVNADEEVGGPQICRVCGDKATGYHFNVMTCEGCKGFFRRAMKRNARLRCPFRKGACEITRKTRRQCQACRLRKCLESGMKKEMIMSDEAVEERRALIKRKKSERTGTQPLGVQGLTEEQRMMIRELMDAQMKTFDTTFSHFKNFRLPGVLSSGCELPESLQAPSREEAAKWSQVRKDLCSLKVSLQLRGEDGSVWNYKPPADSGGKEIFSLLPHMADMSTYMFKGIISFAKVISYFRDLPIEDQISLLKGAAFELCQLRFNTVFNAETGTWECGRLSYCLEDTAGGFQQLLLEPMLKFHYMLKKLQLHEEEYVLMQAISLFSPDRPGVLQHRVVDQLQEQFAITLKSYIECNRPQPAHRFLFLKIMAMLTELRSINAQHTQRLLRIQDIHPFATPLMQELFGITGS
UniProt P13631, whole entry, looked up: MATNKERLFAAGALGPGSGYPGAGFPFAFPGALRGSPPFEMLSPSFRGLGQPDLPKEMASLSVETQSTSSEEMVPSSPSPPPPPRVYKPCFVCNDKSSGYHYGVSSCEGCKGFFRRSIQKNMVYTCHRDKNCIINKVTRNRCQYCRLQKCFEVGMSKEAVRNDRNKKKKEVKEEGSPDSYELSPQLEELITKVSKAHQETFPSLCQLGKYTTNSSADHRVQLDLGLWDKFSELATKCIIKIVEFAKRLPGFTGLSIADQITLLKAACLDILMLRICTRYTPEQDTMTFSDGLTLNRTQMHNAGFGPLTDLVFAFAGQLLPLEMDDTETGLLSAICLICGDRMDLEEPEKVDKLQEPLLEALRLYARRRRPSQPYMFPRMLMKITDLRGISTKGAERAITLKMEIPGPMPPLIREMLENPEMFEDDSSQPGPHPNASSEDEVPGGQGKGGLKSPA
UniProt P51449: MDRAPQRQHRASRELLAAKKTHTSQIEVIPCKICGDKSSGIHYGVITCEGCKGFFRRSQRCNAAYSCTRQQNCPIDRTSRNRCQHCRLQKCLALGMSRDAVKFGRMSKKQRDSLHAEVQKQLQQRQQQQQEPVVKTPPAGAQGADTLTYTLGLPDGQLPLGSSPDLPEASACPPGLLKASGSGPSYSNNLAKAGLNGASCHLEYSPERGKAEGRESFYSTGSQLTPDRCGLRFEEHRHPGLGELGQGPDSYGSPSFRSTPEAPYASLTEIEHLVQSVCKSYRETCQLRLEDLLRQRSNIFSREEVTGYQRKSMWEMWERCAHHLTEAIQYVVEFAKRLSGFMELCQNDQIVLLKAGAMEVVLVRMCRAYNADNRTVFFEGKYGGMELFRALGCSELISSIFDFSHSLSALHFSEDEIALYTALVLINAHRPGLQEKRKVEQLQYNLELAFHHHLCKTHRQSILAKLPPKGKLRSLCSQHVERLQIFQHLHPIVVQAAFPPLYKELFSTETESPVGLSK
UniProt P28702: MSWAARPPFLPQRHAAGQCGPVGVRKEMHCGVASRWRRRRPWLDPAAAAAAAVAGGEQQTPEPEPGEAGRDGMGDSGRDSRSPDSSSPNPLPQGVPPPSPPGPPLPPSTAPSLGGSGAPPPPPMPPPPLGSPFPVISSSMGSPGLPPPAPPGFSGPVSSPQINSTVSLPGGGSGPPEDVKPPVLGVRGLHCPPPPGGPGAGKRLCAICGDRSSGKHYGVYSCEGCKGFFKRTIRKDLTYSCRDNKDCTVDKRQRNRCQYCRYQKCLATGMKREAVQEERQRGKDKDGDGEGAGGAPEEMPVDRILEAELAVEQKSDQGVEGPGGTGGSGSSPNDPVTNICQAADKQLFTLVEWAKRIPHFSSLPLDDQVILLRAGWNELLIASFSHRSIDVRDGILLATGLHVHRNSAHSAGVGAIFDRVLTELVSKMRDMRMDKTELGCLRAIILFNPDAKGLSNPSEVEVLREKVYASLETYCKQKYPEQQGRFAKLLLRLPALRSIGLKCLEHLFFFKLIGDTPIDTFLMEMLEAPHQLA
UniProt P16581: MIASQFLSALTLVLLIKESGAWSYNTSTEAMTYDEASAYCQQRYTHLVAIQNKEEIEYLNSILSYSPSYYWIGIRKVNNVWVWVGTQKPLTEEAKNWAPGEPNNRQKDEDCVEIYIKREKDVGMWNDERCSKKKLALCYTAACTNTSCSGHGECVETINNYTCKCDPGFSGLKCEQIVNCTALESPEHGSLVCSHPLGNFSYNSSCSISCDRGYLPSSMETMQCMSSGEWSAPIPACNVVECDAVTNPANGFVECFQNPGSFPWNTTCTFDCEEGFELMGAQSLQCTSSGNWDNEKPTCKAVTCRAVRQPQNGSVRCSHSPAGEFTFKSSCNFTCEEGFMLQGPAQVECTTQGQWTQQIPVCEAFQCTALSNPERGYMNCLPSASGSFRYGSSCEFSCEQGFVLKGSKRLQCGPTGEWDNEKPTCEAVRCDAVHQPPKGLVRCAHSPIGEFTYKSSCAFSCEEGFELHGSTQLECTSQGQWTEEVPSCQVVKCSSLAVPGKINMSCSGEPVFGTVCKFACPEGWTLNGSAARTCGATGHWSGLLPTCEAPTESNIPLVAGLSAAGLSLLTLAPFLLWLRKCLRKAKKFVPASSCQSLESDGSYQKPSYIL
UniProt P10827: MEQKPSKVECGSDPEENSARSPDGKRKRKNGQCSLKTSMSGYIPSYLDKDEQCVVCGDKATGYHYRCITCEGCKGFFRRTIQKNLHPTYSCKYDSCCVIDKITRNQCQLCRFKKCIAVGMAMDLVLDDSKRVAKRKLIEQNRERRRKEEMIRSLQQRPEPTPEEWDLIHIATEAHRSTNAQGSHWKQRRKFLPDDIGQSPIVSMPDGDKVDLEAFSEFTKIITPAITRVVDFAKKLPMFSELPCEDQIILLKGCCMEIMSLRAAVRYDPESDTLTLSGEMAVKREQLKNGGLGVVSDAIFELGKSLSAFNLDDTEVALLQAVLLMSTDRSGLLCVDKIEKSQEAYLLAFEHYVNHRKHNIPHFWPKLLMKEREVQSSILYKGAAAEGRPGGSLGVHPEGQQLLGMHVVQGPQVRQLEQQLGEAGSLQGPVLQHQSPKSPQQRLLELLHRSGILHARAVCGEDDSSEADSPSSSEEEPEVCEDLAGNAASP

Experiments:
[1] = molecular target: Peroxisome proliferator-activated receptor gamma (Homo sapiens) (UniProt P37231); assay: ATG_PPARg_TRANS: Attagene TRANS-FACTORIAL HepG2 Assay for human Peroxisome Proliferator-activated Receptor-gamma (PPARg) (AID 2283007)
Method in brief: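 Transient transfection of HepG2 with GAL4-UAS-driven reporter units; chemical dosing 24 h; total RNA → oligo(dT) RT → PCR with reporter primers → 6-FAM primer extension → HpaI digest 2 h 37 C → capillary electrophoresis. Positive direction vs DMSO.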

[2] = molecular target: Nuclear receptor subfamily 1 group I member 2 (Homo sapiens) (UniProt O75469); assay: ATG_PXR_TRANS: Attagene TRANS-FACTORIAL HepG2 Assay for human Pregnane X Receptor (PXR) (AID 2283008)
Method in brief: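 HepG2 cells transiently transfected with GAL4-UAS reporter units and PXR-Gal4 chimera, exposed 24 h. Reporter mRNA quantified by RT-PCR, fluorescent labelling, HpaI digestion and capillary electrophoresis; gain of signal vs DMSO.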

[3] = molecular target: human Retinoic Acid Receptor gamma (RARg), RARG (gene 5916) (UniProt P13631); assay: ATG_RARg_TRANS: Attagene TRANS-FACTORIAL HepG2 Assay for human Retinoic Acid Receptor gamma (RARg) (AID 2283009)
Method in brief: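 HepG2 cells transiently transfected with multiplexed reporter units expressing chimeric RARg-GAL4 and GAL4-UAS-driven reporters; 24 h compound exposure. Reporter mRNA quantified by RT-PCR with fluorescent labelling and capillary electrophoresis; gain-of-signal fitted relative to DMSO baseline.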

[4] = molecular target: human RAR-related Orphan Receptor gamma (RORg), RORC (gene 6097) (UniProt P51449); assay: ATG_RORg_TRANS: Attagene TRANS-FACTORIAL HepG2 Assay for human RAR-related Orphan Receptor gamma (RORg) (AID 2283011)
Method in brief: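 First, HepG2 liver cells were transfected with GAL4-UAS-driven reporter constructs and the RORg-Gal4 fusion. Next, they were treated with chemical for 24 h. Finally, reporter mRNA was quantified by RT-PCR and capillary electrophoresis, with upward activity fitted against DMSO.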

[5] = molecular target: human Retinoid X Receptor beta (RXRb), RXRB (gene 6257) (UniProt P28702); assay: ATG_RXRb_TRANS: Attagene TRANS-FACTORIAL HepG2 Assay for human Retinoid X Receptor beta (RXRb) (AID 2283013)
Method in brief: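 HepG2 cells transiently transfected with multiplexed reporter units driven by GAL4-UAS and exogenous chimeric NR-Gal4 proteins; treated 24 h. Reporter mRNA measured by RT-PCR, 6-FAM labelling and capillary electrophoresis; gain-of-signal fitted versus DMSO baseline.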

[6] = read-out: E-selectin (Homo sapiens) (UniProt P16581); assay: BSK_3C_Eselectin: BioMAP Diversity Plus: 3C Assay for Eselectin Biomarker Activity (AID 2283015; active = hit-call score of the fitted dose curve at least 0.9, where 1 is the maximum; inactive = score below 0.9;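 note: cell surface E-selectin protein quantified by ELISA 24 h after dosing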); conditions: actives raise or lower the signal; primary human endothelial cells (HUVEC)
Method in brief: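 ELISA read-out of E-selectin on endothelial monolayers after 24 h chemical treatment. Human umbilical vein primary cells served as the system, with DMSO defining baseline activity for bidirectional fitting.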

[7] = read-out: Interleukin-1 alpha (IL1a), IL1A (gene 3552); assay: BSK_BE3C_IL1a: BioMAP Diversity Plus: BE3C Assay for Interleukin-1 alpha (IL1a) Biomarker Activity (AID 2283016; active = hit-call score of the fitted dose curve at least 0.9, where 1 is the maximum; inactive = score below 0.9); conditions: actives raise or lower the signal; primary human bronchial epithelial cells
Description: BSK_BE3C is a cell-based, multiplexed-readout assay that uses bronchial epithelial cell, a human lung primary cell, with measurements taken at 24 hours after chemical dosing in a 96-well plate.BSK_BE3C_IL1a is an assay component measured in the BSK_BE3C assay. It measures IL-1a antibody related to regulation of gene expression using ELISA technology.Data from the assay component BSK_BE3C_IL1a was analyzed into 1 assay endpoint. This assay endpoint, BSK_BE3C_IL1a, was analyzed with bidirectional fitting relative to DMSO as the negative control and baseline of activity. Using a type of binding reporter, gain or loss-of-signal activity can be used to understand changes in the signaling as they relate to the gene IL1A. Furthermore, this assay endpoint can be referred to as a primary readout, because this assay has produced multiple assay endpoints where this one serves a signaling function. To generalize the intended target to other relatable targets, this assay endpoint is annotated to the cytokine intended target family, where the subfamily is interleukins.
(§1) The levels of cell surface (or secreted, indicated by the prefix "s") biomarker endpoints were measured by ELISA. Overt cytotoxicity to cells in confluent adherent cultures (all systems other than the BT system) was assessed by measuring total protein levels using sulforhodamine B (SRB) staining in parallel cultures at the time of biomarker measurements, indicated as SRB endpoints. For proliferation assays for adherent cell types, individual cell types are cultured at sub-confluence and relative cell numbers quantified by SRB staining at time points optimized for each system (48 h: 3C and CASM3C systems; 72 h: BT and HDF3CGF systems; 96 h: SAg system). SRB was performed by staining cells with 0.1% SRB after fixation with 10% TCA and reading wells at 560 nm.Viability and proliferation of PBMC (T cells) was quantified by Alamar Blue reduction for the SAg and BT systems. For PBMC viability (referred to as PBMC Cytotoxicity within the assay endpoint names), cells were plated (75,000/well in a 96-well plate) and then chemical samples added for 1 h before addition of activators, SEB and TSST-1 (20 ng/mL final concentration each). Cells were incubated for 90 h. Then, Alamar Blue (20 uL/well) (Invitrogen, Cat DAL1100) was added for 6 h, and the plates were read with a fluorescence microplate reader at 546/580 nm (excitation/emission). For PBMC proliferation, cells were plated and activated as above but incubated for only 16 h prior to addition of Alamar Blue. Plates were read after 6 h.

[8] = read-out: Monocyte Chemoattractant Protein-1 (MCP1), CCL2 (gene 6347); assay: BSK_3C_MCP1: BioMAP Diversity Plus: 3C Assay for Monocyte Chemoattractant Protein-1 (MCP1) Biomarker Activity (AID 2283017; active = hit-call score of the fitted dose curve at least 0.9, where 1 is the maximum; inactive = score below 0.9); conditions: actives raise or lower the signal; primary human endothelial cells (HUVEC)
Description: (§2) BSK_3C is a cell-based, multiplexed-readout assay that uses umbilical vein endothelium, a human vascular primary cell, with measurements taken at 24 hours after chemical dosing in a 96-well plate.BSK_3C_MCP1 is an assay component measured in the BSK_3C assay. It measures MCP-1 antibody related to regulation of gene expression using ELISA technology.Data from the assay component BSK_3C_MCP1 was analyzed into 1 assay endpoint. This assay endpoint, BSK_3C_MCP1, was analyzed with bidirectional fitting relative to DMSO as the negative control and baseline of activity. Using a type of binding reporter, gain or loss-of-signal activity can be used to understand changes in the signaling as they relate to the gene CCL2. Furthermore, this assay endpoint can be referred to as a primary readout, because this assay has produced multiple assay endpoints where this one serves a signaling function. To generalize the intended target to other relatable targets, this assay endpoint is annotated to the cytokine intended target family, where the subfamily is chemotactic factor.
as §1

[9] = read-out: Monocyte Chemoattractant Protein-1 (MCP1), CCL2 (gene 6347); assay: BSK_4H_MCP1: BioMAP Diversity Plus: 4H Assay for Monocyte Chemoattractant Protein-1 (MCP1) Biomarker Activity (AID 2283018; active = hit-call score of the fitted dose curve at least 0.9, where 1 is the maximum; inactive = score below 0.9); conditions: actives raise or lower the signal; primary human endothelial cells (HUVEC)
Description: as §2, with “BSK_4H” for “BSK_3C”, “plate.BSK_4H_MCP1” for “plate.BSK_3C_MCP1”, “BSK_4H_MCP1” for “BSK_3C_MCP1”, “BSK_4H_MCP1,” for “BSK_3C_MCP1,”
as §1

[10] = molecular target: human Thyroid Receptor alpha (THRa1), THRA (gene 7067) (UniProt P10827); assay: ATG_THRa1_TRANS: Attagene TRANS-FACTORIAL HepG2 Assay for human Thyroid Receptor alpha (THRa1) (AID 2283014)
Method in brief: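 Reporter transcript induction, read by capillary electrophoresis of 6-FAM-labelled RT-PCR products, reflects activity of a transfected THRa1-Gal4 fusion in HepG2 liver cells. Cells were dosed for 24 h; activity was fitted in the positive direction against DMSO.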

Measured: AC50

N#CSc1ccc([N+](=O)[O-])cc1[N+](=O)[O-]
inactive: [1] | [2] | [3] | [4] | [5]

CCCCO[P+](=O)OCCCC
inactive: [1] | [2] | [4] | [5]

O=C(Cl)OCCOC(=O)Cl
inactive: [3] | [4]

CN(C(=O)Cc1cccc2occc12)[C@H]1CC[C@@]2(CCCO2)C[C@@H]1N1CCCC1
active: [2] 27.2 µM
inactive: [1] | [3] | [5] | [6] | [7] | [8] | [9]

O=C(Cl)Oc1ccccc1
inactive: [1] | [2] | [3] | [4] | [5] | [10] | [6] | [7] | [8] | [9]

CCCCC(CC)CO[P+](=O)OCC(CC)CCCC (configuration not stated)
active: [2] 12.3 µM
inactive: [1]

CCCCOP(OCCCC)OCCCC
active: [1] 34 µM | [2] 6.25 µM
inactive: [3] | [4] | [10]

O=[P+](Oc1ccccc1)Oc1ccccc1
inactive: [2] | [3] | [10]

CC(C)OP(=S)(OC(C)C)SCCNS(=O)(=O)c1ccccc1
inactive: [1] | [7]
active: [2] 354 nM and 457 nM and 335 nM | [7] 10.7 µM | [9] 26 µM and 14.5 µM

ClP(Cl)c1ccccc1
inactive: [1] | [5]

Cc1cc([N+](=O)[O-])cc([N+](=O)[O-])c1O
inactive: [2] | [3] | [5] | [10] | [6] | [7] | [8] | [9]

O=[p+]1oc2ccccc2c2ccccc21 (configuration not stated)
inactive: [1] | [2] | [10]
